Results published in ChEMBL document CHEMBL1828593 (Bioorg Med Chem, 2011).

Amino acid sequences for entries named in this document (tags omitted).
UniProt P58154, whole entry: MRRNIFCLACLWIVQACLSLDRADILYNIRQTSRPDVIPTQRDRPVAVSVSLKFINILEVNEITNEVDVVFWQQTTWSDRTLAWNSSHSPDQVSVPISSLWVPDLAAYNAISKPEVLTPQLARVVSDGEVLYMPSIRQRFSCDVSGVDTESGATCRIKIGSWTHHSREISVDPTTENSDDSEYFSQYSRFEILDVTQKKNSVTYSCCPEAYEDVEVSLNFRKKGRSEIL

Biological target: Acetylcholine-binding protein (Lymnaea stagnalis, UniProt P58154)
Assay: Displacement of [3H]-epibatidine from histidine-tagged Lymnaea stagnalis AChBP expressed in Sf9 cells after 1.5 hrs by liquid scintillation counting

Work on `CN1CCC[C@H]1c1cccnc1` [NICOTINE] yielded a Ki of 316 nM.
